Assay results from ChEMBL document CHEMBL1201862, “PubChem BioAssay data set” (2004).
Active and inactive are the calls of the source.

Protein sequences, listed by entry. Tags and fused reporters are not part of them.
UniProt P33261, whole entry: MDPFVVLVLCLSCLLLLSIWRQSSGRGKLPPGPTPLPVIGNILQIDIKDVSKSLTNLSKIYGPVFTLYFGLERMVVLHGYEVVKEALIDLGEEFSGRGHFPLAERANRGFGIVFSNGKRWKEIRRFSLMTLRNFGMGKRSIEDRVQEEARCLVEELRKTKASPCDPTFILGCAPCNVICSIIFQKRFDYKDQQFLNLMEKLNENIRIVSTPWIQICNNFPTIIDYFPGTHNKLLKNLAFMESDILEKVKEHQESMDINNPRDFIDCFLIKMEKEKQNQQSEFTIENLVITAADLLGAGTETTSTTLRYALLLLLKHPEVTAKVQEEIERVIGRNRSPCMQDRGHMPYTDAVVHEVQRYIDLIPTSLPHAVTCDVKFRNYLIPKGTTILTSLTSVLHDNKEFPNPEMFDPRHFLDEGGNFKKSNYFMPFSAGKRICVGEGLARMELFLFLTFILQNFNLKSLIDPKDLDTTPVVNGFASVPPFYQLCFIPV
UniProt P10635, whole entry: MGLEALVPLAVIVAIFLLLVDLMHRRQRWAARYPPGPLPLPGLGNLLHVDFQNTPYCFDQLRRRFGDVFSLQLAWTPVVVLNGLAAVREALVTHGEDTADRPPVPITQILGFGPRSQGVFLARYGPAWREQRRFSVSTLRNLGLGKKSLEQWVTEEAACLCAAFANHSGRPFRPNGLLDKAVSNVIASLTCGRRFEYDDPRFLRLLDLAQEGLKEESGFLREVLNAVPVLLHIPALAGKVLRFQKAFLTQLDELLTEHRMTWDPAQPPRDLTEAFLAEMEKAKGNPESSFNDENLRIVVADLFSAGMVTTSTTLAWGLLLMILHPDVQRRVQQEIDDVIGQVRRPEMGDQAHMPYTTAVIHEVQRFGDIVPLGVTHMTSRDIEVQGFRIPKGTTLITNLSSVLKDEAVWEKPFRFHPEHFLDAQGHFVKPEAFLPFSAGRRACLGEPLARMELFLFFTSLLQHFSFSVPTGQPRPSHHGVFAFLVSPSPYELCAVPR
UniProt P05177, whole entry: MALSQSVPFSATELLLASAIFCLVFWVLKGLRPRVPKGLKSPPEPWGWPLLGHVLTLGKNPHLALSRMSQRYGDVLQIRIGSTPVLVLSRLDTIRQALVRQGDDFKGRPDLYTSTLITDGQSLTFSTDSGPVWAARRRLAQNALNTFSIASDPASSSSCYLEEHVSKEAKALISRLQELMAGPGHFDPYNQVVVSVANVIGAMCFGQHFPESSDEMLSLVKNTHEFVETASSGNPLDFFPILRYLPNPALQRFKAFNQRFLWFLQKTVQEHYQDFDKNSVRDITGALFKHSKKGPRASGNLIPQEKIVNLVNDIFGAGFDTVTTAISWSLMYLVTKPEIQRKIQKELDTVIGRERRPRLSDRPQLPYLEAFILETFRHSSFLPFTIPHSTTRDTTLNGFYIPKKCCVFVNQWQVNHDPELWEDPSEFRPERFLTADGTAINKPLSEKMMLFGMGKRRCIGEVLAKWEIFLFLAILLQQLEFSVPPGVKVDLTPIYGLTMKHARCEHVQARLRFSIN
UniProt P11712, whole entry: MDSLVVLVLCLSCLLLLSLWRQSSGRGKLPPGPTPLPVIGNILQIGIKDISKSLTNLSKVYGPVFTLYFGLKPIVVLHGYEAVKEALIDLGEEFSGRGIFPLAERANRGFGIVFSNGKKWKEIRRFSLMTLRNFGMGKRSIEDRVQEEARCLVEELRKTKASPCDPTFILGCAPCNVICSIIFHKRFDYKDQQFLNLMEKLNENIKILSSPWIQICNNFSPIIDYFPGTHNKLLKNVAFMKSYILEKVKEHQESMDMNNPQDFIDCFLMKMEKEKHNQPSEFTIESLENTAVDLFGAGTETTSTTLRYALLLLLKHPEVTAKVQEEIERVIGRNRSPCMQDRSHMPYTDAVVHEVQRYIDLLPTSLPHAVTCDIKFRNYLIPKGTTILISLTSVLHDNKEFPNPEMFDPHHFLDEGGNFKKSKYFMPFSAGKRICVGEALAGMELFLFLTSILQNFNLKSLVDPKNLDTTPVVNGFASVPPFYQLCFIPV

Experiments:
HEK293 = assay: inhibition of NOD1-driven NF-kB reporter – cell-based, luminescence, uHTS, primary screen (AID 1578); assay type: functional; settings: Homo sapiens
Interleukin-8 [1] = target: T1, Interleukin-8 (Homo sapiens, UniProt P10145); assay: SAR analysis of Tumor necrosis factor alpha (TNF-alpha) induced IL-8 secretion in MCF-7/NOD1 cells - Set 2. [Related pubchem assays (depositor defined):AID1575, AID2250, AID2260]; assay type: functional, cell-based
T1 sequence (P10145 whole entry): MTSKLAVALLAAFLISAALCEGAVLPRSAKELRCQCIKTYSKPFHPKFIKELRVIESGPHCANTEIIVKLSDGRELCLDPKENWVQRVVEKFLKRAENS

[2] = target: T2, Nucleotide-binding oligomerization domain-containing protein 1 (Homo sapiens, UniProt Q9Y239); assay: blockers of NOD1 pathway activity – revised, SAR follow-up (AID 2333); assay type: functional
T2 sequence (Q9Y239 whole entry): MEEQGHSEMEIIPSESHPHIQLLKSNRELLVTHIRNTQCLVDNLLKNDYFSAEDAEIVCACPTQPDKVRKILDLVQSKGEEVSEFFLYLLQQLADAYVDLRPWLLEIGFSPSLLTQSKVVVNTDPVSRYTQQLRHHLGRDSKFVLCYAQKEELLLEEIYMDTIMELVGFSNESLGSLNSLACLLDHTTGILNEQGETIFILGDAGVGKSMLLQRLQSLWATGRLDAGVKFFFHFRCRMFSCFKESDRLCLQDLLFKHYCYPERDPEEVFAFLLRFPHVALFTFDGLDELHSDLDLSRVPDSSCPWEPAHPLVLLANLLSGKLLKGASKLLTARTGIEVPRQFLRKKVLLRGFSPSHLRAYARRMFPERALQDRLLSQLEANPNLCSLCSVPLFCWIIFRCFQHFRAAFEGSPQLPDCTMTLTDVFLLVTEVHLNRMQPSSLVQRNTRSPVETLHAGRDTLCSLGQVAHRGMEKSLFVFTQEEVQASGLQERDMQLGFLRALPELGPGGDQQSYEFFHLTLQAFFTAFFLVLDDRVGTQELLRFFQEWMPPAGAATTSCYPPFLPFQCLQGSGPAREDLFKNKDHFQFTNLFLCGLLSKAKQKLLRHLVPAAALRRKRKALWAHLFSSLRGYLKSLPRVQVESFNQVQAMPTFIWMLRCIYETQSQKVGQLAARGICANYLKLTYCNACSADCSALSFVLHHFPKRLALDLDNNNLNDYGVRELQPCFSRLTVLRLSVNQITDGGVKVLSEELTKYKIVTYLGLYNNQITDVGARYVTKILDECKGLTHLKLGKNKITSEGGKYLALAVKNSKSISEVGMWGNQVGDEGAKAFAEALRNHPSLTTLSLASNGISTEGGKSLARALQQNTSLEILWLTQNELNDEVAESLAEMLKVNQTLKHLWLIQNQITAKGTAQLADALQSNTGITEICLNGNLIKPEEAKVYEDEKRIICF

[3] = target: T2, Nucleotide-binding oligomerization domain-containing protein 1; assay: SAR analysis of compounds that inhibit NOD1 - Set 2. [Related pubchem assays (depositor defined):AID1566, AID1575, AID1578, AID1849, AID1852, AID2333, AID2335, AID2798]; assay type: functional
Interleukin-8 [4] = target: T1, Interleukin-8; assay: SAR analysis of tumor necrosis factor alpha (TNF-alpha) induced IL-8 secretion in MCF-7/NOD1 cells. [Related pubchem assays (depositor defined):AID1575, AID2250, AID2260]; assay type: functional, cell-based
Cytochrome P450 2C19 = Cytochrome P450 2C19 (Homo sapiens, UniProt P33261); assay: Cytochrome panel assay with activity outcomes. Panel member name: p450-cyp2c19 Compounds with AC50 equal or less than 10 uM are considered active; assay type: functional
Cytochrome P450 2D6 = Cytochrome P450 2D6 (Homo sapiens, UniProt P10635);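 also: CYP2D6 member of a cytochrome P450 panel assay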
Cytochrome P450 1A2 = Cytochrome P450 1A2 (Homo sapiens, UniProt P05177);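 also: PubChem cytochrome P450 panel assay, CYP1A2 panel member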
Cytochrome P450 2C9 = Cytochrome P450 2C9 (Homo sapiens, UniProt P11712)

Row | SMILES | EC50 (HEK293) | IC50 (Interleukin-8 [1]) | IC50 [2] | IC50 [3] | IC50 (Interleukin-8 [4]) | AC50 (Cytochrome P450 2C19) | AC50 (Cytochrome P450 2D6) | AC50 (Cytochrome P450 1A2) | AC50 (Cytochrome P450 2C9)
1 | Cc1ccc(S(=O)(=O)n2c(N)nc3ccccc32)cc1 | active: 460 nM | inactive: > 25000 nM | active: 706 nM | active: 720 nM | inactive: > 25000 nM |  |  |  | 
2 | O=C(O)CCCC[C@H]1SC[C@H]2NC(=O)N[C@@H]21 |  |  |  |  |  | inactive | inactive | inactive | inactive
3 | COc1cccc2c1C(=O)c1c(O)c3c(c(O)c1C2=O)C[C@@](O)(C(C)=O)C[C@@H]3O[C@H]1C[C@H](N)[C@H](O)[C@H](C)O1 [DAUNORUBICIN] |  |  |  |  |  | inactive |  |  | inactive
